System: activated PSCs
Assay: Caspase 3/7 activity in culture-activated PSCs
Assay type: cell-based, human
Conditions: PSCs culture activated 7 days; 10^3 ng/mL with Protein G, 3 h
Procedure: TRAIL induces apoptosis by binding to its cognitive receptors, DR4 and DR5. To investigate whether both TRAIL receptors are necessary to induce apoptosis in activated PSCs, the caspase 3/7 activity (apoptosis markers) was measured by treating activated PSCs with either human anti-DR4 agonistic antibody (mapatumumab) or anti-DR5 agonistic antibody (conatumumab). For DR4 or DR5 specific antibody treatments, PSCs were culture activated for 7 days on 96 well plate (Corning) and sequential concentrations (0, 10^1, 10^2, 10^3 ng/mL) of mapatumumab (human anti-DR4 antibody, Creative Biolabs) or conatumumab (human anti-DR5 antibody, Creative Biolabs) with Protein G (Thermo Fisher Scientific, Waltham, Mass. #21193) were added and incubated for 3 h and the cells tested for caspase activity. Caspase 3/7 activities were measured by caspase3/7 assay kit (Promega) according to the manufacturer's protocol. The luminescence of each sample was measured on a plate reader (Bio-Tek Instruments Inc) with parameters of 1 min lag time and 0.5 sec/well read time (n=4).

caspase-3/7 activity: 10.79±1.42 fold
Substance: conatumumab: human anti-DR5 agonistic antibody (Creative Biolabs)

From patent US11084879B2, “Compositions and methods for treating pancreatitis and pain with death receptor agonists” (The Johns Hopkins University, priority 2016, dated 2021)
